From ChEMBL document CHEMBL1154694, “Discovery of a 2,4-diamino-7-aminoalkoxyquinazoline as a potent and selective inhibitor of histone lysine methyltransferase G9a” (J Med Chem, 2009) come the findings set out here.

Experiment [1] has as its target T1, Histone-lysine N-methyltransferase EHMT1 (Homo sapiens, UniProt Q9H9B1).
T1 sequence (Q9H9B1 whole entry): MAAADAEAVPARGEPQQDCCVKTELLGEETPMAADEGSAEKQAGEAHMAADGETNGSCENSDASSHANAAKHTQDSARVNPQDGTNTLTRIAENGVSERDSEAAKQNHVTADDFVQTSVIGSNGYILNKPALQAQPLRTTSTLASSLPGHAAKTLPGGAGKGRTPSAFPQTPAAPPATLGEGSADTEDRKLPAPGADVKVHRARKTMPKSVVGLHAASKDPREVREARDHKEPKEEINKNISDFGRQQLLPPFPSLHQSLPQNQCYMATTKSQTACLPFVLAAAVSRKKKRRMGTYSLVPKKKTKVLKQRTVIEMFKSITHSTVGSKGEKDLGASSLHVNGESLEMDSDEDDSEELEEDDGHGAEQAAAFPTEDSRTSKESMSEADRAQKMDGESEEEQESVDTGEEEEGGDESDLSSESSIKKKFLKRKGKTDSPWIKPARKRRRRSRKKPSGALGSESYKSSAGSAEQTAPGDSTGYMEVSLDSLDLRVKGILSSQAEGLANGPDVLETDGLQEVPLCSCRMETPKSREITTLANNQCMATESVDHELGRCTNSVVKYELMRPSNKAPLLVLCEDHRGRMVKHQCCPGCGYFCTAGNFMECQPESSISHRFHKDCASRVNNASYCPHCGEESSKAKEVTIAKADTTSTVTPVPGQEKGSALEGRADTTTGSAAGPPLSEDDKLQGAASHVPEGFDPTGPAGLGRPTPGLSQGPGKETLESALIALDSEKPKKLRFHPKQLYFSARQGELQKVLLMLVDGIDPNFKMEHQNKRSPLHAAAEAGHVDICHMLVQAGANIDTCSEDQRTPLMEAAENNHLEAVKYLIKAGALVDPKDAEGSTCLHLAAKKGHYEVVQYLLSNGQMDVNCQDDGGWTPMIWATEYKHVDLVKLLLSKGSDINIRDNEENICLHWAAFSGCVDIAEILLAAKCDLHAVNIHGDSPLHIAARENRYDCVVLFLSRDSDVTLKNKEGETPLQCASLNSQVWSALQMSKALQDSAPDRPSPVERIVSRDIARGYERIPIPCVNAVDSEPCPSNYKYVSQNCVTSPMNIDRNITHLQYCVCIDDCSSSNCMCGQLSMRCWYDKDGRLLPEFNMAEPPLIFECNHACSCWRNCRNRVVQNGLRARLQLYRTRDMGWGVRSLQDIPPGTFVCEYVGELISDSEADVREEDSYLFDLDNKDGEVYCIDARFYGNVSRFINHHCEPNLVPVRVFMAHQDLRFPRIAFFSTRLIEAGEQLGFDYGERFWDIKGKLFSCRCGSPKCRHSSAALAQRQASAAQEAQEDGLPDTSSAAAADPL
Put plainly: Inhibition of GLP.

Experiment [2] has as its target T2, Histone-lysine N-methyltransferase EHMT2 (Homo sapiens, UniProt Q96KQ7).
T2 sequence (Q96KQ7 whole entry): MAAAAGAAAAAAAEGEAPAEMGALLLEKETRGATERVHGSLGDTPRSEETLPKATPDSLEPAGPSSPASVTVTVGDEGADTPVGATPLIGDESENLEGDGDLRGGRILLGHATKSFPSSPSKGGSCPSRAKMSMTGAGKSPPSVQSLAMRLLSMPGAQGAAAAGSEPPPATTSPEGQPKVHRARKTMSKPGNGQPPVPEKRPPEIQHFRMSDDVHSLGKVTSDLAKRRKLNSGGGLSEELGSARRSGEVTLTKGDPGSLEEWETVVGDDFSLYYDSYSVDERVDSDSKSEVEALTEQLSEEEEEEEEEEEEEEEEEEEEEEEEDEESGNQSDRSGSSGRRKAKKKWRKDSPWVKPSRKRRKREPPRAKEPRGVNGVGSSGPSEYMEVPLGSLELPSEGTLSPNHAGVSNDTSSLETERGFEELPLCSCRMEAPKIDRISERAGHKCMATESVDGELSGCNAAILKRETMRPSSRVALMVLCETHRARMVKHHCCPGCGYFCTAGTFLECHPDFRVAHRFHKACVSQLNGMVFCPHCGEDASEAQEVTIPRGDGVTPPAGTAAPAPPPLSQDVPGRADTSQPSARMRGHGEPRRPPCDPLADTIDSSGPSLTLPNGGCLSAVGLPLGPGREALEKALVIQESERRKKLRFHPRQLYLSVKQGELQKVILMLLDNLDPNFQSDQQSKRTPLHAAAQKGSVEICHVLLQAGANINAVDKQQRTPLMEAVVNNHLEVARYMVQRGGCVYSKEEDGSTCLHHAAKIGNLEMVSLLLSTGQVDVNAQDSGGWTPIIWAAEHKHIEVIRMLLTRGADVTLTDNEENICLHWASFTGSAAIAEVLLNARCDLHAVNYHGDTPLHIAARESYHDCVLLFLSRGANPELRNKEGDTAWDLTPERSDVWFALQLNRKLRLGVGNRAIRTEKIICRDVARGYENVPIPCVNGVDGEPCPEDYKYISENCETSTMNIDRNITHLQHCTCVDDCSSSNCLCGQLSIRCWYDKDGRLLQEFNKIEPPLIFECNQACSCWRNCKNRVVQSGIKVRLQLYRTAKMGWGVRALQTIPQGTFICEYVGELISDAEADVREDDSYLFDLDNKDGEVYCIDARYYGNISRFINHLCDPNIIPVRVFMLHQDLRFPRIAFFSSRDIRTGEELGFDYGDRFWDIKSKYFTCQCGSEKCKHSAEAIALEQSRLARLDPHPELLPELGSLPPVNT
Put plainly: Binding affinity to G9a by isothermal titration calorimetry.

As to `COc1cc2nc(N3CCCN(C)CC3)nc(NC3CCN(Cc4ccccc4)CC3)c2cc1OC`, in experiment [1], the midpoint of inhibition, the IC50, lay at 700 nM.
In the case of `COc1cc2c(NC3CCN(C)CC3)nc(N3CCCN(C)CC3)nc2cc1OCCCN(C)C`, the Kd in experiment [2] was 23 nM.
